ClpP mod – qHTS Assay for Activators of ClpP; 1.9% of 340,000 active; Potency, µM (titrated, usually from 57.5 µM), for the others: at the top dose activity change, negative = active; purified B. subtilis ClpP, FRET peptide cleavage, 20 min; ATP-dependent Clp protease proteolytic subunit (Bacillus subtilis (strain 168)), P80244; AID 651965, 2013; active means well fitted falling curve with a large enough effect; inconclusive means small, poorly fitted or top-dose-only effect; inactive means no such curve, though single readings can be large or run the other way; further: potency means the concentration at half of the fitted maximal effect; the source files actives as falling curves though it sought activators and does not explain the sign; nearly all actives have a fitted effect of over 65% in size
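Purified B. subtilis ClpP, 10 microg/mL final in Tris/HCl pH8 with KCl, BSA, glycerol and Tween-20, cleaved an Abz/nitrotyrosine-quenched decapeptide. Fluorescence (ex 320, em 430) was read at 0 and 20 min at room temperature. Delta was normalized to 5.8 microM ADEP and DMSO/no-enzyme controls.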
Nrf2 block – Nrf2 pathway inhibition | Potency, µM (titrated, usually from 46 µM), without a hit: at the highest dose activity change, negative = inhibition, hits mostly inhibitors | A549 ARE-Fluc reporter, luciferase luminescence, 18-24 h | 2.1% of 360,000 active; further: potency means the concentration at half of the fitted maximal effect; on the % scale 0 is the no-effect control and ±100 the full control effect; nearly all actives have a fitted effect of over 60% in size
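Reporter: ARE-Fluc in A549. Exposure: 18-24 h, 37 °C, 5% CO2, 5% FBS OPTI-MEM. Readouts: fluorescent cytotoxicity (CellTiter-Fluor), then luminescent Nrf2 signal after BugLite.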
TCR act – activators of T cell receptors. primary human leukocytes, anti-CD3, IL-2 HTRF, 48 h. Potency, µM (doses to about 9.22 µM), inactives show at the top dose activation of IL-2 secretion, actives largely listed as activators. 330,000 tested, under 10 active. AID 504894; further: % of control where 0% means no effect
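48 hr co-incubation of compounds, a-CD3 beads and primary human leukocytes; IL-2 quantified homogeneously by HTRF with anti-IL-2 K and d2 conjugates.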
miR-21 FLuc – miR-21 reporter, rising signal | HeLa miR-21 FLuc reporter, luciferase, 48 h | Potency, µM (top dose mostly 38.3 µM), inactives show at the highest dose reporter change, positive = more light | 340,000 tested, under 10 active | AID 2288; active = well fitted rising curve with a large enough effect; inconclusive = small, poorly fitted or top-dose-only effect; inactive = no such curve, though single readings can be large or run the other way;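 note: % of control where 0% means no effect; miR-21 action dims this reporter so a rising signal means less miR-21 action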
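Using DMEM plus 10% FBS, HeLa miR-21-FLuc cells are incubated with test compounds (final up to about 40uM) for 48 hours; firefly luciferase signal is then imaged following reagent-mediated lysis.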
A549 tox – kills or reduces viability of A549 cells in Nrf2 counter-screen | A549 ARE-Fluc cells, CellTiter-Fluor viability, 18-24 h | Potency, µM (top dose mostly 46 µM), for the others: top-dose activity change, negative = cytotoxicity, actives largely listed as inhibitors | 0.16% of 390,000 active; further: potency means the concentration at half of the fitted maximal effect; on the % scale 0 is the no-effect control and ±100 the full control effect
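A549 ARE_Fluc cells in 5% FBS OPTI-MEM were exposed to compounds in concentration-response for 18-24 h at 37 deg C. Viability was read by CellTiter-Fluor fluorescence (Ex 405/Em 525) after 30 min, before the luciferase read.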
Nrf2 ARE act – activators of Nrf2 (ARE) signaling | 0.31% of 410,000 active | Potency, µM (top dose mostly 46.1 µM), inactives show top-dose activation, most hits filed as activators | AREc32 ARE-luciferase reporter (MCF7-derived line), luminescence, 24 h; further: potency means the concentration at half of the fitted maximal effect; % of control where 0% means no effect; nearly all actives have a fitted effect of over 65% in size
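Cells of the AREc32 ARE-luciferase line are plated in OPTI-MEM containing 5% FBS and left overnight at 37 deg C. Compounds are pinned in, incubation continues 24 hr, and firefly luciferase signal is then measured.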
An asterisk follows results filed as active; u = inconclusive; x = no result; [ ] = dose if it differs, or a comment. Shown are actives, neighbours in structure and some others; about 3.7% of the full set was active somewhere. Unless noted, the call rests on the fitted dose curve; in most records, active means well fitted curve in the direction sought with a large enough effect; inconclusive means small, poorly fitted or top-dose-only effect, or another doubt; inactive means no such curve, though single readings can be large; an effect the other way counts as inactive or inconclusive.

item	Structure	ClpP mod	Nrf2 block	TCR act	miR-21 FLuc	A549 tox	Nrf2 ARE act
1	CN(C(=O)Cc1c[nH]c2ccccc12)C(C(=O)Nc1ccc2c(c1)OCO2)c1ccccc1 (configuration not stated)	-2%	23µM*	0%[46.1 µM]	0%	u	4%
2	CC(=O)NC(Cc1c[nH]c2ccccc12)C(=O)Nc1ccc2c(c1)OCO2 (configuration not stated)	-1%	x	-6%	-17%	-1%	4%
3	CC(Oc1ccc(F)cc1)C(=O)Nc1cc(S(=O)(=O)N2CCOCC2)ccc1N1CCCCC1 (configuration not stated)	x	21µM*	-4%	x	u	2%
4	COc1ccc(NS(=O)(=O)c2ccc(N3CCOCC3)c(NC(=O)c3ccc(F)cc3)c2)cc1	0%	9.2µM*	-4%[46.1 µM]	-7%	-10%	0%
5	COc1ccc(NS(=O)(=O)c2ccc(N3CCOCC3)c(NC(=O)c3cccc(F)c3)c2)cc1	u	u	-5%[46.1 µM]	1%	-6%	0%
6	CCN1CCN(c2ccc(S(=O)(=O)N3CCOCC3)cc2NC(=O)c2ccc(OCC(C)C)cc2)CC1	2%	9.2µM*	1%	x	-23%	0%
7	CC(Oc1ccc(F)cc1)C(=O)Nc1cc(S(=O)(=O)N2CCOCC2)ccc1N1CCCC1 (configuration not stated)	-2%	2%	2%	0%	4%	0%
8	CCN1CCN(c2ccc(S(=O)(=O)N3CCOCC3)cc2NC(=O)c2ccc(C)c(C)c2)CC1	-1%	-12%	-2%	x	3%	0%

Profiles, looked up by structure. Order of values: ClpP mod | Nrf2 block | TCR act | miR-21 FLuc | A549 tox | Nrf2 ARE act
`COc1ccc(NS(=O)(=O)c2ccc(N3CCOCC3)c(NC(=O)c3cccc(F)c3)c2)cc1` is listed as u | u | -5%[46.1 µM] | 1% | -6% | 0%
`COc1ccc(NS(=O)(=O)c2ccc(N3CCOCC3)c(NC(=O)c3ccc(F)cc3)c2)cc1` is listed as 0% | 9.2µM* | -4%[46.1 µM] | -7% | -10% | 0%
`CC(Oc1ccc(F)cc1)C(=O)Nc1cc(S(=O)(=O)N2CCOCC2)ccc1N1CCCCC1` (configuration not stated) is listed as x | 21µM* | -4% | x | u | 2%
`CN(C(=O)Cc1c[nH]c2ccccc12)C(C(=O)Nc1ccc2c(c1)OCO2)c1ccccc1` (configuration not stated) is listed as -2% | 23µM* | 0%[46.1 µM] | 0% | u | 4%

(next part)
item	Structure	ClpP mod	Nrf2 block	TCR act	miR-21 FLuc	A549 tox	Nrf2 ARE act
9	COCCN(CCOC)Cc1cc(=O)oc2cc(C)c(Cl)cc12	-14%	x	x	x	x	0%
10	CCOC(=O)C1(C)CCCN1C(=O)c1ccc(OC)c(OC)c1 (configuration not stated)	-2%	x	x	x	x	0%
11	CCOc1ccc(N2CC(C(=O)Nc3cccc(S(=O)(=O)NC4=NCCC4)c3)CC2=O)cc1 (configuration not stated)	1%	-27%	-4%	-2%	0%	0%
12	COc1ccc(C2Nc3ccccc3C(=O)N2Cc2ccccc2)cc1OCc1ccc(NC(C)=O)cc1 (configuration not stated)	x	0%	x	x	6%	x
13	CC1CCN(c2ccc(C(=O)O)cc2NS(=O)(=O)c2ccc(Br)cc2)CC1	20µM*	-8%	2%	-7%	-17%	4%
14	CC1(C(=O)NS(=O)(=O)C2CC2)CCCN(C(=O)c2ccc(F)cc2Cl)C1 (configuration not stated)	2%	x	x	x	x	0%[9.22 µM]
15	CCOc1cc(Cn2c(-c3ccc(O)c(OCC)c3)nc3ccccc32)ccc1O	10µM*	x	x	-7%	7%	7%
16	COCCn1c(C)cc(C(=O)CSc2nnc(C)s2)c1C	-1%	15µM*	-1%	u	-2%	-1%
17	COCCn1c(C)cc(C(=O)CSc2n[nH]c(N)n2)c1C	2%	10%	-2%	-33%	-5%	0%
18	O=C(NC(=S)NCc1ccc(Cl)cc1)c1ccco1	-5%	16µM*	-19%	x	6%	7%
19	O=C(NC(=S)Nc1cccc(O)c1)c1ccco1	-1%	u	-30%	-50%	2%	11µM*
20	Cc1ccc2nc(NC(=S)NC(=O)c3ccco3)sc2c1	2%	u	6%	-73%	-3%	u
21	Cc1ccc2nsnc2c1NC(=S)NC(=O)c1ccco1	0%	4%	5%[46.1 µM]	-8%	2%	6.3µM*
22	O=C(NC(=S)Nc1cccnc1Cl)c1ccco1	-4%	u	5%	-46%	14%	13µM*
23	O=C(CSc1ncccn1)NC(=O)Cc1ccccc1	1%	17%	8%	x	0%	0%
24	O=C(Nc1cccc(S(=O)(=O)N2CCCCC2)c1)C1CCCN1S(=O)(=O)c1ccccc1F (configuration not stated)	-17%	u	5%	x	-16%	0%
25	O=[N+]([O-])c1cc(NS(=O)(=O)c2ccc(Cl)nc2)ccc1Cl	u	16µM*	-4%	x	u	1%
26	CCP(=O)(c1ccccc1)C(C)(C)O (configuration not stated)	16µM*	x	1%	-1%	11%	-1%
27	CCCOP(=O)(c1ccccc1)c1ccccc1	-1%	-6%	5%[46.1 µM]	-4%	-6%	2%
28	CCN(CC(=O)Nc1ccc(OC)cc1)C(=O)C1CC(=O)N(Cc2ccccc2)C1 (configuration not stated)	2%	x	x	x	x	0%
29	O=C(Nc1cc([N+](=O)[O-])c2[nH]c(=O)c3ccccc3c2c1)C(F)(F)F	32µM*	-21%	5%	x	-9%	8%
30	Fc1ccc(-c2nc3n(n2)Cc2ccccc2-3)cc1	1%	x	7%	-2%	0%	4%
31	c1ccc(-c2cn3c(n2)-c2ccccc2C3)cc1	14µM*	u	0%[46.1 µM]	2%	-11%	3%
32	Cc1ccc(S(=O)(=O)CCC(=O)Nc2nc(-c3ccccn3)cs2)cc1	-1%	21µM*	0%	x	-12%	14µM*
33	Cc1ccc(S(=O)(=O)CCC(=O)Nc2nc(-c3cccnc3)cs2)cc1	0%	8%	0%	0%	-6%	3%
34	O=C(CCS(=O)(=O)c1ccc(Cl)cc1)Nc1nc(-c2ccncc2)cs1	-2%	5%	-3%	22%	2%	11µM*
35	O=C(C[n+]1ccccc1Br)c1ccc(-c2ccccc2)cc1	-25%	x	x	x	x	x
36	Oc1[nH]c(N=C2N=c3ccccc3=N2)c2ccccc12	0%	u	3%	7%	u	5.6µM*
37	CC(=O)c1c(C(C)=O)c(C)n(-c2ccc(C)c(NC(=O)c3ccccc3Cl)c2)c1C	-2%	15µM*	x	2%	-9%	0%
38	O=C(O)/C=C/C(=O)Nc1ccccc1-c1ccccc1	25µM*	x	1%	1%	7%	0%
39	Cc1ccc(-n2nc(CO)c(C(=O)NC(C)CCCc3ccccc3)n2)cc1 (configuration not stated)	32µM*	-19%	x	12%	12%	1%
40	Cc1ccc(-n2nc(CO)c(C(=O)NCCCc3ccccc3)n2)cc1	22µM*	-4%	x	2%	-2%	1%
41	CCc1ccc(-n2nc(CO)c(C(=O)NCc3ccccc3OC)n2)cc1	-4%	u	x	-10%	-1%	-1%
42	CCc1ccc(-n2nc(CO)c(C(=O)NCCCCc3ccccc3)n2)cc1	u	0%	x	1%	0%	0%
43	Cc1ccc(-n2nc(CO)c(C(=O)NCCCCc3ccccc3)n2)cc1	10µM*	3%	x	10%	4%	0%

A few values from the entries so far.
compound 34 in Nrf2 ARE act: 11µM*
compound 37 in Nrf2 ARE act: 0%
compound 35 in ClpP mod: -25%
compound 33 in miR-21 FLuc: 0%
compound 41 in miR-21 FLuc: -10%
compound 39 in ClpP mod: 32µM*

Screening data: PubChem, National Center for Advancing Translational Sciences (NCATS)
